Data from ChEMBL document CHEMBL5576072, “Discovery of a potent and selective JAK1-targeting PROTAC degrader with anti-tumor activities” (Bioorg Med Chem Lett, 2024).

Experiments:
HEL = experiment: Antiproliferative activity against HEL cells; conditions: Homo sapiens
K562 = experiment: Antiproliferative activity against human K562 cells
THP-1 = experiment: Antiproliferative activity against human THP-1 cells

N#CCNC(=O)c1ccc(-c2ccnc(Nc3ccc(N4CCOCC4)cc3)n2)cc1 [MOMELOTINIB] was tested, and the IC50 (HEL) was 0.95 µM, the IC50 (K562) was 4.7 µM and the IC50 (THP-1) was 8.8 µM.
